This is an account of results in PubChem BioAssay AID651636 (Sanford-Burnham Center for Chemical Genomics, 2012).

Amino acid sequences for entries named in this document (tags omitted).
UniProt P32249, whole entry: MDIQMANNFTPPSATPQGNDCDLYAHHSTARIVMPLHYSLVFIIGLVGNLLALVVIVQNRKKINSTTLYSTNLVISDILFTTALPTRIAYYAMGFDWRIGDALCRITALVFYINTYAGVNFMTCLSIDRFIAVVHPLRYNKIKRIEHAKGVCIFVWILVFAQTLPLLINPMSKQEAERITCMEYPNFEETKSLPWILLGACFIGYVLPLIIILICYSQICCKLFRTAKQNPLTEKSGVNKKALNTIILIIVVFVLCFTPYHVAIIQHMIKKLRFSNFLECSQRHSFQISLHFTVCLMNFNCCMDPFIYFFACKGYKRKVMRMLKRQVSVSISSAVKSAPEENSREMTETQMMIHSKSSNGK

The list shows a part of the results, in another mix than the full data. Some salts or complexes appear as unconnected parts, following the source record. Calls of active or inactive are those of the source. No stated cut-off is given here; in the data, active means inhibition above about 38%; inactive means the rest.

This assay concerns the target G-protein coupled receptor 183 (Homo sapiens) (UniProt P32249). Nature of the assay: EBI2 receptor antagonists, beta-arrestin recruitment, primary screen, cell-based, luminescence, 7a,25-OHC stimulation, uHTS (AID 651636).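 Further: enzyme fragment complementation signal reports receptor beta-arrestin coupling in cells; 0% = agonist plus DMSO wells and 100% = wells without agonist.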 Conditions: 7a,25-OHC stimulated, at 5 µM, hits give high values.
Consider `O=[N+]([O-])c1cc([N+](=O)[O-])c(Nc2ccccn2)c([N+](=O)[O-])c1`, for which the inhibition is inactive: 8.17%.

As to `Cc1c(NP(C)(=O)Oc2ccc(C(C)C)cc2)c(=O)n(-c2ccccc2)n1C` (stereo not given), the inhibition was inactive: -1.13%.

`CN(C)CCOC(=O)C(O)(c1ccccc1)C1CCCC1` (stereo not given): the inhibition is inactive: -13.2%.

Regarding `COc1ccc(OP(C)(=O)Nc2ccccn2)cc1` (stereo not given), the inhibition is inactive: -12.5%.

As for `COc1ccccc1OP(C)(=O)Nc1ccc(Br)cc1` (stereo not given), the inhibition was inactive: -10.6%.

As for `CP(=O)(OCCOc1ccccc1)OCCOc1ccccc1`, the inhibition was inactive: 2.92%.

For the compound `CP(=O)(Nc1ccc(Cl)cc1Cl)Oc1ccccc1` (stereo not given), the inhibition was inactive: 7.13%.

For the compound `CCCCCCCCCCCCCCCC1C[N+](C)(C)CCOP(C)(=O)O1` (stereo not given), the inhibition was inactive: -0.198%.

With `COc1ccc(OP(C)(=O)Nc2ccccc2Br)cc1` (stereo not given), the inhibition was inactive: -4.57%.

On to `COc1ccccc1OP(C)(=O)Nc1ccc(C)c(C)c1` (stereo not given), for which the inhibition was inactive: -6.08%.

Take `Cc1cc(C)cc(OP(C)(=O)Nc2cccc(C(F)(F)F)c2)c1` (stereo not given): the inhibition is inactive: 2.52%.

As to `O=C1C(O)=C([N+](=O)[O-])C(=O)C(O)=C1[N+](=O)[O-]`, the inhibition is inactive: 0.0707%.

On to `CP(=O)(OC12CC3CC(CC(C3)C1)C2)OC12CC3CC(CC(C3)C1)C2`, for which the inhibition was inactive: 5.83%.

On to `CCOC(=O)c1ccc(NP(C)(=O)Oc2ccc(Cl)cc2)cc1` (stereo not given), for which the inhibition is inactive: -3.93%.

For the compound `CN(C)C(=O)c1c([N+](=O)[O-])cc([N+](=O)[O-])cc1[N+](=O)[O-]`, the inhibition was inactive: -4.23%.

Regarding `CP(=O)(Nc1ccc(Cl)cc1)Oc1ccc(F)cc1` (stereo not given), the inhibition was inactive: -1.56%.

Turning to `CC(C)(C)c1ccc(OP(C)(=O)O)cc1`, the inhibition is inactive: -12.2%.

For the compound `COc1ccccc1OP(C)(=O)Nc1ccccc1Br` (stereo not given), the inhibition was inactive: -0.839%.

As for `CCc1ccc(OP(C)(=O)Nc2cccnc2)cc1` (stereo not given), the inhibition was inactive: -10.6%.

Take `CP(=O)(Oc1ccccc1)N1CCOC1=O` (stereo not given): the inhibition was inactive: 2.25%.

Consider `O=C(OCCCN1CCCC1)C(O)(c1ccccc1)C1CCCCC1` (stereo not given), for which the inhibition was inactive: -7.05%.

As to `COc1ccccc1OP(C)(=O)Nc1c(C)n(C)n(-c2ccccc2)c1=O` (stereo not given), the inhibition is inactive: -4.23%.

In the case of `COc1ccc(OP(C)(=O)Nc2ccc(Br)cc2)cc1` (stereo not given), the inhibition was inactive: -10.5%.

On to `CCN(CC)CC(O)COC(=O)C(O)(c1ccccc1)C1CCCCC1` (stereo not given), for which the inhibition is inactive: -18.6%.

Consider `O=[N+]([O-])c1cc([N+](=O)[O-])c(C(F)(F)F)c([N+](=O)[O-])c1O`, for which the inhibition is inactive: 4.74%.

Take `Cc1ccccc1NP(C)(=O)Nc1ccccc1C`: the inhibition is inactive: 1.94%.

In the case of `CP(=O)(Nc1ccc2c(c1)OCCO2)Oc1ccccc1` (stereo not given), the inhibition is inactive: -18.4%.

For `CCOP(C)(=S)SCC(=O)NC(C)(CC)C(=O)O` (stereo not given), the inhibition was inactive: -10.7%.

In the case of `CP(=O)(Nc1ccc(SC(F)(F)F)cc1)Oc1ccc(F)cc1` (stereo not given), the inhibition is inactive: -0.39%.

As for `Cc1c(C(c2ccc3c(c2)OCO3)c2c(C)n(C)n(-c3ccccc3)c2=O)c(=O)n(-c2ccccc2)n1C.O=[N+]([O-])c1cc([N+](=O)[O-])c(O)c([N+](=O)[O-])c1`, the inhibition is inactive: -1.01%.

Take `Cc1cc(-c2cccc3ccccc23)c(C)cn1.O=[N+]([O-])c1cc([N+](=O)[O-])c(O)c([N+](=O)[O-])c1`: the inhibition was inactive: 10.1%.

Take `O=[N+]([O-])c1cc([N+](=O)[O-])c(NCC2CCS(=O)(=O)C2)c([N+](=O)[O-])c1` (stereo not given): the inhibition is inactive: -1.82%.

For `O=[N+]([O-])c1ccc(OP2(=O)COCCO2)cc1` (stereo not given), the inhibition is inactive: 1.66%.

`COc1ccc(NP(C)(=O)Oc2ccccc2OC)cc1` (stereo not given): the inhibition is inactive: -5.52%.

For `CN(C)CCOC(=O)C(O)(c1ccccc1)C1CCCCC1` (stereo not given), the inhibition was inactive: -1.82%.

As to `COc1ccc(OP(C)(=O)Nc2cccc(Br)c2)cc1` (stereo not given), the inhibition is inactive: -5.54%.

Consider `O=[N+]([O-])c1cc([N+](=O)[O-])c(OC2CCCCC2O)c([N+](=O)[O-])c1` (stereo not given), for which the inhibition was inactive: -7.42%.

For `CCCCCOc1ccc(NP(C)(=O)Oc2ccc(Cl)cc2Cl)cc1` (stereo not given), the inhibition is inactive: 8.14%.

Take `CP(=O)(Nc1ccccc1)Oc1ccc(F)cc1` (stereo not given): the inhibition was inactive: -2.17%.

Consider `CCN(CC)CCCOC(=O)C(O)(c1ccccc1)C1CCCCC1` (stereo not given), for which the inhibition is inactive: -12.1%.

On to `Cc1c([N+](=O)[O-])cc([N+](=O)[O-])c(Br)c1[N+](=O)[O-]`, for which the inhibition was inactive: 0.688%.

As to `COc1ccc(OP(C)(=O)Nc2ccc(SC(F)(F)F)cc2)cc1` (stereo not given), the inhibition is inactive: 7.61%.

Consider `CCOC(=O)c1ccc(NP(C)(=O)Oc2ccc(F)cc2)cc1` (stereo not given), for which the inhibition is inactive: -31.2%.

With `CCN(CC)CCCNc1ccccc1[N+](=O)[O-].O=[N+]([O-])c1cc([N+](=O)[O-])c(O)c([N+](=O)[O-])c1`, the inhibition is inactive: 3.48%.

`COc1ccc2c(c1O)-c1c(O)c(OC)cc3c1[C@H](C2)[N+](C)(C)CC3.O=[N+]([O-])c1cc([N+](=O)[O-])c([O-])c([N+](=O)[O-])c1[O-]`: the inhibition was inactive: -25.9%.

On to `O=C(OCCN1CCN(CCOCc2ccccc2)CC1)C(O)(c1ccccc1)c1ccccc1`, for which the inhibition is inactive: -4.34%.

As for `O=C(OC1CN2CCC1CC2)c1ccc([N+](=O)[O-])cc1` (stereo not given), the inhibition was inactive: -2.64%.

With `CC(C)c1ccc(OP(C)(=O)Nc2ccc(SC(F)(F)F)cc2)cc1` (stereo not given), the inhibition is inactive: 9.71%.

In the case of `CP(=O)(Nc1ccccc1F)Oc1ccccc1` (stereo not given), the inhibition was inactive: -0.945%.

Consider `O=[N+]([O-])c1cc([N+](=O)[O-])c(Nc2ccc(Cl)cc2)c([N+](=O)[O-])c1`, for which the inhibition is inactive: 1.54%.
